The values that follow come from publication PMC4207802.

Assay [1] concerns the target F4 – FSHR-LRR10/TSHR (human) (UniProt P23945).
Assay [2] deals with T1 – FSHR-HinR/TSHR (human) (UniProt P16473).
Assay [3] has as its target T3 – TSHR-LRR11/FSHR (human) (UniProt P16473).
Assay [4] deals with T4 – TSHR-LRR10/FSHR (human) (UniProt P16473).
The target of assay [5] is F4 – FSHR-LRR10/TSHR (human) (UniProt P23945). Briefly: radioligand binding; competitive binding on intact transiently transfected COS-7 cells, 48 h after transfection; 80.000 cpm/ml 125I-bTSH with 0–100 mU/ml unlabeled bTSH; modified Hank's buffer with 1.3 mM CaCl2, 280 mM sucrose, 0.2% BSA, 2.5% milk powder; 4°C, four hours; binding to empty-vector cells subtracted; maximal binding capacity from a one-site fit, wild type TSHR set at 100%.

Assay [6] concerns the target T1 – FSHR-HinR/TSHR (human) (UniProt P16473). The description is as above.
Assay [7] deals with T3 – TSHR-LRR11/FSHR (human) (UniProt P16473). The description is as above.
In assay [8] the target is T4 – TSHR-LRR10/FSHR (human) (UniProt P16473). Described as above.
Assay [9] has as its target T0 – TSHR (wild type human thyrotropin receptor) (human) (UniProt P16473). The description is as above.

Regarding “bovine thyrotropin (bTSH) (from UniProt P01217 25-120; P01223 21-132) (ligand)”, the EC50 of intracellular cAMP accumulation in transfected COS-7 cells, bTSH dose-response in [1] amounted to 10.3 mU/ml; in assay [2] it was 2 mU/ml. Moreover, the intracellular cAMP accumulation in transfected COS-7 cells, bTSH dose series; value at 100 mU/ml is 45.1 nM in assay [1], 60.8 nM in [2], 31.2 nM in [3] and 30.7 nM in assay [4]. Also, the EC50 of intracellular cAMP accumulation in transfected COS-7 cells, bTSH dose-response; estimated value, curve did not reach a plateau in assay [3] is 13.7 mU/ml; in assay [4], 25.2 mU/ml. Moreover, the specific binding (% wt) in [5] came out at 19 % wt; in assay [6] it was 28 % wt; in assay [7], 7 % wt; in assay [8], 7 % wt.

Consider “bovine thyrotropin (bTSH) (from UniProt P01217 25-120; P01223 21-132) (ligand; other documents disagree on this pair)”, for which, in assay [9], the specific binding (% wt) was determined as 100 % wt.
